Data reported in US9617577B2, “Bacillus pumilus bilirubin oxidase and applications thereof” (CENTRE NATIONAL DE LA RECHERCHE SCIENTIFIQUE, priority 2010, dated 2017).

Amino acid sequences for entries named in this document (tags omitted). A change or cut given only in a name is not applied to a line headed by its entry.
UniProt A8FAG9: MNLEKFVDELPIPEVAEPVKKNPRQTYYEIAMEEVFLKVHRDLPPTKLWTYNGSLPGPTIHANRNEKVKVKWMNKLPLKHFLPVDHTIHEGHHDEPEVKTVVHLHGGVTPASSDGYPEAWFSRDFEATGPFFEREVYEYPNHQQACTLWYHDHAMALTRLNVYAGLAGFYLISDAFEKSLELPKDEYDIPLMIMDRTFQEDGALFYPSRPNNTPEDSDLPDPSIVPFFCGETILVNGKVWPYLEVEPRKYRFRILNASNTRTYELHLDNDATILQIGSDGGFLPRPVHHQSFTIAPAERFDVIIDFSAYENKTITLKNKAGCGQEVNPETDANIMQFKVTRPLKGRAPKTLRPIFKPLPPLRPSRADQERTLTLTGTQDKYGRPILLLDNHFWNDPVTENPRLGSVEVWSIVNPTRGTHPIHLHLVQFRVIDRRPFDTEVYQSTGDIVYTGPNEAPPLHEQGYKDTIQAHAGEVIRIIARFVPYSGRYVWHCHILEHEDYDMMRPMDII

Key:
[1] = molecular target: T1, Bacillus pumilus bilirubin oxidase (BOD), wild type, strain SAFR-032, SEQ ID No. 2 (C-terminal 6xHis tag) (Bacillus pumilus, UniProt A8FAG9); experiment: Steady-state kinetics of ABTS oxidation by B. pumilus BOD; format: biochemical; conditions: 37° C., 0.1 M citrate/phosphate buffer, pH 3
T1 sequence (A8FAG9 with tags, fused parts or gaps): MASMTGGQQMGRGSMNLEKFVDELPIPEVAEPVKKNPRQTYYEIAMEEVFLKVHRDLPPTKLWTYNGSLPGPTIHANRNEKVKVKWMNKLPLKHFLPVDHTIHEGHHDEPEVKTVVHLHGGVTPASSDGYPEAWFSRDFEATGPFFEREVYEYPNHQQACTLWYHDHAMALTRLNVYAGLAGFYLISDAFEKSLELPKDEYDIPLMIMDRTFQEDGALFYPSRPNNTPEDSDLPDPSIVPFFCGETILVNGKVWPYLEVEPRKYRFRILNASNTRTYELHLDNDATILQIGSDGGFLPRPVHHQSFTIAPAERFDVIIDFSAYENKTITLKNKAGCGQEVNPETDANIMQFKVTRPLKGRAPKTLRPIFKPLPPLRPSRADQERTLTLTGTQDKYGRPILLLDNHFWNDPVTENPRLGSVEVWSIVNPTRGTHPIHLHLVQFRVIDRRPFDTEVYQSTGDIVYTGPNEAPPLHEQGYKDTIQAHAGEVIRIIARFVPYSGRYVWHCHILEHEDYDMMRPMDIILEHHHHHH

[2] = test system: Bacillus subtilis CotA (BOD); conditions: same optimal activity conditions; Martins et al., 2008; cited from earlier work

## CCn1c(=NN=c2sc3cc(S(=O)(=O)O)ccc3n2CC)sc2cc(S(=O)(=O)O)ccc21 [ABTS, 2,2′-azinobis(3-ethylbenzothiazoline-6-sulphonic acid)]
[1]
  kcat (for ABTS): 391.3 s⁻¹
[2]
  kcat (for ABTS): 322 s⁻¹
